Assay results published in PMC5777823 (eLife, 2017).

Biological target: T1, CENP-C^[…] (human)
T1 construct: pGEX-6P-2rbs; named without GST in the assays; source: bacteria, purified as described (Klare et al., 2015)
Assay: SEC; analytical SEC on Superdex 200 5/150 or Superose 6 5/150; 20 mM HEPES pH 7.5, 300 mM NaCl, 2.5% glycerol, 2 mM TCEP, 4°C; proteins mixed at 6 μM, one hour on ice; fractions by SDS-PAGE and Coomassie
Conditions: both partners purified

B1: CENP-L:CENP-N^230-C complex (complex, human)
chain 1: MDSYSAPESTPSASSRPEDYFIGATPLQKRLESVRKQSSFILTPPRRKIPQCSQLQEDVDPQKVAFLLHKQWTLYSLTPLYKFSYSNLKEYSRLLNAFIVAEKQKGLAVEVGEDFNIKVIFSTLLGMKGTQRDPEAFLVQIVSKSQLPSENREGKVLWTGWFCCVFGDSLLETVSEDFTCLPLFLANGAESNTAIIGTWFQKTFDCYFSPLAINAFNLSWMAAMWTACKMDHYVATTEFLWSVPCSPQSLDISFAIHPEDAKALWDSVHKTPGEVTQEEVDLFMDCLYSHFHRHFKIHLSATRLVRVSTSVASAHTDGKIKILCHKYLIGVLAYLTELAIFQIE
chain 2: DINMDSRIIHENIVEKERVQRITQETFGDYPQPQLEFAQYKLETKFKSGLNGSILAEREEPLRCLIKFSSPHLLEALKSLAPAGIADAPLSPLLTCIPNKRMNYFKIRDK
notes: CENP-L, human; CENP-N, human, residues 230 to the C-terminus of the 339-residue protein; Form used in SEC and ITC, named without GST; tag probably cleaved with 3C protease; also called CENP-LN^230-C; CENP-LN^230-C dimer; source: Tnao38 insect cells (baculovirus, co-expressed), purified (GSH-Sepharose, Superdex 200)
- binding result: binds
